Measured values as given in patent publication US7261867B1 (Eastman Kodak Company, priority 2006, dated 2007).

Conditions: about 170° C. melt

With silver laurylsulphate the “discoloration in polyolefin melt” value was “extremely discolored”.
